The source of these data is patent publication US8242117B2, “5-membered heterocycle-based p38 kinase inhibitors” (Novartis AG, priority 2003, dated 2012).

Protein sequences, listed by entry. Tags and fused reporters are not part of them.
UniProt Q16539, whole entry: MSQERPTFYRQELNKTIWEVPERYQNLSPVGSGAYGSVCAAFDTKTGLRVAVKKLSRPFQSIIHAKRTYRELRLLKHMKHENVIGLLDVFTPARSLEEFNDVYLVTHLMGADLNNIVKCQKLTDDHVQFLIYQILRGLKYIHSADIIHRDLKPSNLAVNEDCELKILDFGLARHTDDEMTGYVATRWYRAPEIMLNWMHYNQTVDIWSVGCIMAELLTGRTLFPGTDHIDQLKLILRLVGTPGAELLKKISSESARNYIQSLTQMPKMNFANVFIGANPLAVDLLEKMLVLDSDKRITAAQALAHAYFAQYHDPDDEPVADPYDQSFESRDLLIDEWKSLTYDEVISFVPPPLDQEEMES

Bounds are passed on as bounds.

The target in the assay is p38α kinase (Homo sapiens, UniProt Q16539). The assay is described as follows: p38α assay (ADP release coupled to NADH oxidation). To be noted: read-out: p38α IC50; 60 min preincubation, 0.15 mM ATP, 20 nM p38α kinase. How it is done: cDNAs of human p38α and β were cloned by PCR. The α and β cDNAs were subcloned into DEST2 plasmid (Gateway, InVitrogen). His6-p38 fusion protein was expressed in E. coli and purified from bacterial lysates by affinity chromatography using Ni^+2-NTA-agarose. His6-p38 protein was activated by incubating with constitutively active MKK6. Active p38 was separated from MKK6 by affinity chromatography. Constitutively active MKK6 was generated in a manner similar to Raingeaud et al. [Mol. Cell. Biol., 1247-1255 (1996)].
The p38α assay employed is based on measurement of ADP released in the reaction of interest through NADH oxidation obtained by coupling with pyruvate kinase and lactate dehydrogenase reactions. The assays were performed in 384-well UV-plates. The final volume was 25 μL prepared from the addition of 2.5 μL compound dissolved in 10% DMSO, 17.5 μL of assay buffer and 5 μL of ATP. […] Reaction rates were measured at 340 nm using SpectraMax plate-reading spectrophotometer for 10 min at 37° C. Inhibition data were analyzed by non-linear least-squares regression using SigmaPlot.

As to `Cc1ccc(C(=O)NC2CC2)cc1-n1ncc(C(=O)NCC(C)(C)C)c1N`, the IC50 is under 1000 nM.

In the case of `Cc1ccc(C(=O)NC2CC2)cc1-n1ncc(C(=O)Nc2ccccc2)c1N`, the IC50 is under 1000 nM.
